Legend:
[1] = biological target: Dengue virus (DV) RdRp (Dengue virus type 2, UniProt P29990); test: DV RdRp primed-template (primer extension) assay; format: biochemical; settings: ddhCTP titrated at different concentrations of CTP
From the text: FIG. 6(A)-6(B): DV RdRp-catalyzed RNA synthesis is inhibited by ddhCTP by a chain termination mechanism. A. Schematic of primer extension assay for evaluating DV RdRp activity. Elongation complexes are first assembled with a trinucleotide primer, 5′-pGGC (SEQ ID NO:1), and 20-nt RNA template (SEQ ID NO:2) in the presence of ATP and GTP to elongate the trinucleotide primer (extended primer; SEQ ID NO:3)) and position the enzyme on the template (SEQ ID NO:2) such that guanosine is in the first templating position (underlined). In the presence of CTP and UTP, DV RdRp catalyzes RNA synthesis to the end of the template (SEQ ID NO:5). […] B. Increasing concentrations of ddhCTP (1, 10, 100 and 300 μM) inhibits DV RdRp-catalyzed RNA synthesis. Reaction products resolved by denaturing PAGE from DV RdRp-catalyzed nucleoside incorporation in the presence of increasing concentrations of either ddhCTP or 3′-dCTP. In the absence of ddhCTP and 3′-dCTP, DV RdRp efficiently catalyzes RNA synthesis to the end of the template creating a 20-nt RNA product (n+5, lanes 2 and 8).
Molecular target for ddhCTP: Viperin is induced by both DNA and RNA viruses (8,44-51). […] To determine if the observations with DV RdRp extend to other supergroups, we evaluated a member of supergroup I. Specifically, the RdRp from human rhinovirus type C (HRV-C) was used, a member of the Picornavirus family. […]

The chains behind the UniProt entries cited, without tags or fusion partners. Residues count along the entry.
UniProt P06935, 2526-3430: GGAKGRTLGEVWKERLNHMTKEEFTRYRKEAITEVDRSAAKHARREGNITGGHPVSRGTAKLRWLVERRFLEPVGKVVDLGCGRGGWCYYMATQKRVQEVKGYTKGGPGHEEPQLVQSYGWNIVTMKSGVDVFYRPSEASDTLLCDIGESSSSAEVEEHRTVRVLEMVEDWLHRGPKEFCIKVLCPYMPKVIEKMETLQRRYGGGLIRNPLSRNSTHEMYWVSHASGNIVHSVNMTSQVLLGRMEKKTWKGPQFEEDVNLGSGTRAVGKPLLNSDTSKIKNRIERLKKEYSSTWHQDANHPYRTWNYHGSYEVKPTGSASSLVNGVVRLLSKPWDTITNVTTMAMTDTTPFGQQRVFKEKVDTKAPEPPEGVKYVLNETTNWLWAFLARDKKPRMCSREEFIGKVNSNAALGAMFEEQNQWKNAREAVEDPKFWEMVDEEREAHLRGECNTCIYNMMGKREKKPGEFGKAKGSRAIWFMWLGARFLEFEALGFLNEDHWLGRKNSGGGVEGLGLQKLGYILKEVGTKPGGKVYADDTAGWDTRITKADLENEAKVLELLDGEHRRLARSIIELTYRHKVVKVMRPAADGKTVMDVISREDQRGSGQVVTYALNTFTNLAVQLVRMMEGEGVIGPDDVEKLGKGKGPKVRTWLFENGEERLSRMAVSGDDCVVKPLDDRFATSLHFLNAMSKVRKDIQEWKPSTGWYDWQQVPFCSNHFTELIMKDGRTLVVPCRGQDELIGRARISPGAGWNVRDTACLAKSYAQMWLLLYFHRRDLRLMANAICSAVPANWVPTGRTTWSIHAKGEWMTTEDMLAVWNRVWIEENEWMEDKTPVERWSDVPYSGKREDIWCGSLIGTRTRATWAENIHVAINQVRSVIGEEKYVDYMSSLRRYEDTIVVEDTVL

[2] = biological target: RdRp from West Nile Virus (WNV) (West Nile virus, UniProt P06935); test: WNV RdRp utilization of ddhCTP versus CTP; format: biochemical; settings: ddhCTP titrated at different concentrations of CTP

## Nc1ccn([C@@H]2OC(COP(=O)(O)OP(=O)(O)OP(=O)(O)O)=C[C@@H]2O)c(=O)n1 (stereo in doubt) [ddhCTP, 3′-deoxy-3′,4′-didehydro-cytidine triphosphate]
[1]
  difference in utilization of ddhCTP relative to CTP: 135 fold
[2]
  difference in utilization of ddhCTP relative to CTP: 59 fold

From patent publication US11279728B2, “Broad spectrum viral inhibitor” (Albert Einstein College of Medicine, priority 2017, dated 2022)
